Structures are written as SMILES.

Chains of the proteins cited; added tags and fusions are not shown. Residues count along the entry.
UniProt Q13501, 1-356 limits assumed: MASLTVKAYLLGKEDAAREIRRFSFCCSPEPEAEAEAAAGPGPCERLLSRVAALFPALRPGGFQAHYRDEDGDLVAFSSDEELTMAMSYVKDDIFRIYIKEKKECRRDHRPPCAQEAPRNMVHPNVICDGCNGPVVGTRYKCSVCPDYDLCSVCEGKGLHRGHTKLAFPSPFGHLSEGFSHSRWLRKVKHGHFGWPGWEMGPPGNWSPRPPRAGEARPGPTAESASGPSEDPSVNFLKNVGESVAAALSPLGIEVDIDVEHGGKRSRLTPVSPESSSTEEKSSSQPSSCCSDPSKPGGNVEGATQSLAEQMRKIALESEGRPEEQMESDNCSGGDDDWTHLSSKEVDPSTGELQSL

This assay deals with P62 (Homo sapiens, UniProt Q13501). Put plainly: SPR (Biacore T200, His-P62 captured on CM5 chip).

Take `O=[As]O[As]=O` (stereo not shown): the Kd – broadly, a measure of binding affinity in units of concentration – stood at 8.76 nM.

These data come from paper PMC6147786, “Arsenic circumvents the gefitinib resistance by binding to P62 and mediating autophagic degradation of EGFR in non-small cell lung cancer” (2018).
